Assay results taken from patent US11559537B2, “Combination therapies using caspase-1 dependent anticancer agents and PGE2 antagonists” (Trustees of Tufts College, priority 2017, dated 2023).
pIC50: −log10 of the molar value.

Columns and labels:
DPP8/9 = details: read-out: IIC50 DPP8/9
[1] = test system: MB49 murine urothelial carcinoma; assay: MB49 efficacy studies; format: in vivo; details: MB49 mouse tumor model, truncated dosing schedules

With CN(CB(O)O)C(=O)[C@@H](N)CCC(=O)O [compound 2408] the pIC50 (DPP8/9) was < 4.70.

With CC(C)(F)[C@H](N)C(=O)N1CCC[C@H]1B(O)O [compound 4268] the antitumor activity [1] was “displays antitumor activity”.
